Results on one compound are retold here after patent publication US10370371B2, “Substituted pyrimidine Bmi-1 inhibitors” (PTC Therapeutics, Inc., priority 2013, dated 2019).

A word on the EC50: it is the midpoint of the concentration-response curve.

The assay concerns Bmi-1 protein. Description: Sandwich ELISA Assay (Bmi-1 protein level in HT-1080 cells). Particulars: read-out: ELISA EC50 value for Bmi-1 protein. The assay is classed as cell-based. How it is done: Cell Seeding and Compound Treatment (Day 1):
HT-1080 cells were seeded at 8000 cells/well (50 μL) in 96-well tissue culture plates. After the cells became adherent (3-4 hours), 2× diluted stocks of test compounds in 50 μL DMEM containing 1% DMSO (final DMSO concentration was 0.5%) were added and the plates were incubated at 37° C. under 5% CO2 for 40-48 hours.
ELISA Plate First Antibody Preparation (Day 2):
The First Antibody (Millipore Mouse, monoclonal to mouse Bmi-1, clone F6, catalog #05-637) diluted to 2 μg/mL in PBS was added (100 μL) to each well of a Nunc MaxiSorp 96-well ELISA plate. The plate was covered with a plate seal and allowed to stand overnight.
Cell Lysate Preparation (Day 3):
Fresh Lysis buffer (1×) was prepared on the day of the assay as follows: 1 mM EDTA, 150 mM NaCl, 0.5% Triton-X 100, 10 mM NaF, 20 mM B-Glycerophosphate, 1 mM DTT (in PBS, pH 7.2-7.4) and HALT protease inhibitor cocktail (1×) (Pierce #78410).
Lysis Buffer (1×, 40 μL) was added to each well and the plate was shaken for 5-10 minutes on an orbital shaker to allow cell lysis, then diluent (1% BSA in PBS in 0.5% NP40) (100 μL) was added to each well. […]
The plate was washed and blotted dry, then a previously prepared TMB substrate (TMB substrate kit, Pierce catalog #34021) (prepared by mixing kit reagents 1:1) (100 μL) was added per well. […] The plates were read at OD450 (experimental) and OD570 (reference).
(An ELISA detects its analyte on a solid surface through an enzyme-linked reagent.)

Consider `Cc1nc2ccc(F)cc2n1-c1cc(NP(=O)(O)O)nc(Nc2ccc(C(F)(F)F)cc2)n1`, for which the EC50 lay within 10 to 100 nM.
